Entries after “also recorded” stand apart in the source; their conditions may differ.
System: CD14+ monocytes
Test: monocyte phenotype profiling, CD16 expression
Type: cell-based, human
Details: IFN-β primed CD14+ monocytes versus without IFN-β priming
Excerpt: Following the established inflammation in the RA chip, work pivoted to whether the RA inflammation can be maintained on-chip for a long period. The RA chip cultured for over 4 days and quantified inflammatory cytokines secretion with IL-6 and GM-CSF as indicator. […] It was previously shown that pre-treatment circulating type I IFN (T1IFN) activity predicts non-response to TNFi (Wampler-Muskardin et al., Front Immunol, 2020). Remarkably, no patient with a ratio >1.3 achieved remission or low disease activity. It is also possible to use single cell gene expression analysis to study blood monocytes in RA patients with high vs. low IFN-β-to-α activity ratio. […] Further on, the behaviors of monocytes in the RA chip are investigated by infusing monocytes into the central sinus of the chip, from which monocytes can distribute into the microvessel network and extravasate out of vessel. […] In addition, the effect of circulating T1IFNs on monocyte activation in the RA chip was studied.
To confirm the role of TNF-α in regulating the RA inflammation, monitored first is monocyte dynamics in the RA device which is primed with or without TNF-α. […] Previously, the biology of non-classical and classical monocytes was examined from RA patients defined by their pre-biologic treatment T1IFN activity.

B1: IFN-β: type I interferon used to prime monocytes (protein, UniProt P01574 22-187, looked up)
Interferon beta: MSYNLLGFLQRSSNFQCQKLLWQLNGRLEYCLKDRMNFDIPEEIKQLQQFQKEDAALTIYEMLQNIFAIFRQDSSSTGWNETIVENLLANVYHQINHLKTVLEEKLEKEDFTRGKLMSSLHLKRYYGRILHYLKAKEYSHCAWTIVRVEILRNFYFINRLTGYLRN
- CD16 expression on monocytes: may suppress CD16 expression; also recorded: lower expression of CD16

Source: patent publication US20260103665A1, “Synovium-on-a-Chip” (New York University, priority 2022, published 2026)
